Measured values from publication PMC4162805 (European journal of medicinal chemistry, 2014).

Chains of the proteins cited; added tags and fusions are not shown. Lines headed by an entry give the natural chain unless they say otherwise; changes in a name come on top.
UniProt P41145: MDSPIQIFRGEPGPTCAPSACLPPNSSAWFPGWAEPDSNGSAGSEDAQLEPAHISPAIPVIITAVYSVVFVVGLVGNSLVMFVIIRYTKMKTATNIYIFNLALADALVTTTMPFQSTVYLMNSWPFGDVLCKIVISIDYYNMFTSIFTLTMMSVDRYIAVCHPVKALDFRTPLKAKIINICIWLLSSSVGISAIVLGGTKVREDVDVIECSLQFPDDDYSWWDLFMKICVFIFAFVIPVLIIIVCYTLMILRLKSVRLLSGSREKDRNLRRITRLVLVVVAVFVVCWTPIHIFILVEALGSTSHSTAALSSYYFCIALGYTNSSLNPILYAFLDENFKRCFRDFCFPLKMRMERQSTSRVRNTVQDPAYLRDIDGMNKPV

Target: κ-opioid receptor (KOR) (Homo sapiens, UniProt P41145)
Format: binding
Settings: vs 4a

With `C=CCC(=O)O[C@H]1C[C@@H](C(=O)OC)[C@]2(C)CC[C@H]3C(=O)O[C@H](c4ccoc4)C[C@]3(C)[C@H]2C1=O` [4f, 2-O-(3′-Butenoyl)salvinorin B] the “fold increased KOR affinity compared to 4a” value was 2 fold.
